Source: ChEMBL document CHEMBL1123812, “Pyrroloisoquinoline antidepressants. 2. In-depth exploration of structure-activity relationships” (J Med Chem, 1987)

Sequences of proteins named here, by UniProt entry; tags and fusion partners are left off. A change or cut given only in a name is not applied to a line headed by its entry.
UniProt P30994: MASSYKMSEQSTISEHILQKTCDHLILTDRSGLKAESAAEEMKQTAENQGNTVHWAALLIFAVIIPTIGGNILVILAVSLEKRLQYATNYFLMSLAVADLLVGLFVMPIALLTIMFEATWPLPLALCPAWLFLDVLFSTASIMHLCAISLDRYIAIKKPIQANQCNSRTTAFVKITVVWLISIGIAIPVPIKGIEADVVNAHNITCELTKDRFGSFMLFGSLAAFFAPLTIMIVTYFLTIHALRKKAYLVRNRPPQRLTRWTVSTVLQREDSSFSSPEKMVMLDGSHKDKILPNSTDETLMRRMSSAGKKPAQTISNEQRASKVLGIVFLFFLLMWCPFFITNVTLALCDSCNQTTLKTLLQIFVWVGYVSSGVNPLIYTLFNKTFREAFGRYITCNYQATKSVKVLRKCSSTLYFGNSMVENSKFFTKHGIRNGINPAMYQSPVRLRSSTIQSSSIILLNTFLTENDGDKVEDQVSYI
UniProt P08909: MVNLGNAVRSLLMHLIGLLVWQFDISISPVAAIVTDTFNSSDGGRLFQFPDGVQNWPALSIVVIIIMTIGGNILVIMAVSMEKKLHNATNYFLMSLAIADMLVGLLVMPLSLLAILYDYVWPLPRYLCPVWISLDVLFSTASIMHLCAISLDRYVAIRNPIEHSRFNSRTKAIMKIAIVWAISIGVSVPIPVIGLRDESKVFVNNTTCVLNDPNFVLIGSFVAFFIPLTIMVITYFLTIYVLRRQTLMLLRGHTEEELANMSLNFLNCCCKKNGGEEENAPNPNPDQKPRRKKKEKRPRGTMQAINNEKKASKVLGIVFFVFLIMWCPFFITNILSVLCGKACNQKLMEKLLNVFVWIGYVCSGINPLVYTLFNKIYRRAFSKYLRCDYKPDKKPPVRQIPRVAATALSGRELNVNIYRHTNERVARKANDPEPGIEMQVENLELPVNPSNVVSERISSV
UniProt P14842: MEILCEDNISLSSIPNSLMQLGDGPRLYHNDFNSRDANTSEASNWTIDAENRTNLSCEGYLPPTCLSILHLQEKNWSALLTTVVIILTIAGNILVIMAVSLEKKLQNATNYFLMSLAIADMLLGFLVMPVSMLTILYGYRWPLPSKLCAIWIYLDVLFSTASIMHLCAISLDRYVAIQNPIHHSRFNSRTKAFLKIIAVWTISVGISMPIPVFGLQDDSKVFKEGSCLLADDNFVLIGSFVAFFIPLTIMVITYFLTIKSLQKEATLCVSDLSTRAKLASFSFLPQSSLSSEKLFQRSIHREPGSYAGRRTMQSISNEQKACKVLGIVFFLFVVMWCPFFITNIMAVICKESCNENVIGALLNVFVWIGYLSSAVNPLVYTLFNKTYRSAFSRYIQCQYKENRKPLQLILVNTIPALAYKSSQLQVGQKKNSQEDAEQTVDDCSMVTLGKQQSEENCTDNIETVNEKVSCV
UniProt P61169, whole entry: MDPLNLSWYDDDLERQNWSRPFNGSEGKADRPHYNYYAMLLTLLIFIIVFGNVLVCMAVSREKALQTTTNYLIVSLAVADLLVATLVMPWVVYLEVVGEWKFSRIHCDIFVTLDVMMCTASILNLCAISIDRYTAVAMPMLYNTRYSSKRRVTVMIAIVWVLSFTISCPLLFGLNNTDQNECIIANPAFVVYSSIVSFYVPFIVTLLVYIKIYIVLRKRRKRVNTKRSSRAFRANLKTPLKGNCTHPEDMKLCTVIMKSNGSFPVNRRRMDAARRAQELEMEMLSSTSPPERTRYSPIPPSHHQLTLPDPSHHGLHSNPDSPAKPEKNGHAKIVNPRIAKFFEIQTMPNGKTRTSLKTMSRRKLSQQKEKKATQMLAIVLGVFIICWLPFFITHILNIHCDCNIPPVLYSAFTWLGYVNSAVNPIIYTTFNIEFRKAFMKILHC

Experiments:
[1] = molecular target: Serotonin 2 (5-HT2) receptor (Rattus norvegicus, UniProt P30994+P08909+P14842); test: Binding affinity towards 5-hydroxytryptamine 2 receptor; assay type: protein assay
D(2) dopamine receptor = D(2) dopamine receptor (Rattus norvegicus, UniProt P61169); test: Binding affinity towards Dopamine receptor D2 at 1.0 uM concentration

Row | Ki [1] | Ki (D(2) dopamine receptor) | Structure (SMILES)
1 | 23 nM | – | CN(C)CCCN1c2ccccc2CCc2ccccc21 [IMIPRAMINE]
2 | – | 828 nM | CN1CCN2c3ccccc3Cc3ccccc3C2C1 (configuration not stated) [MIANSERIN]
